Broadly, the pEC50 is the EC50 on a negative log10 scale, so that one unit is a factor of ten. High values mean a low EC50, low ones a high EC50.

Protein sequences, listed by entry. Tags and fused reporters are not part of them. Lines headed by an entry give the natural chain unless they say otherwise; changes in a name come on top.
UniProt P41145: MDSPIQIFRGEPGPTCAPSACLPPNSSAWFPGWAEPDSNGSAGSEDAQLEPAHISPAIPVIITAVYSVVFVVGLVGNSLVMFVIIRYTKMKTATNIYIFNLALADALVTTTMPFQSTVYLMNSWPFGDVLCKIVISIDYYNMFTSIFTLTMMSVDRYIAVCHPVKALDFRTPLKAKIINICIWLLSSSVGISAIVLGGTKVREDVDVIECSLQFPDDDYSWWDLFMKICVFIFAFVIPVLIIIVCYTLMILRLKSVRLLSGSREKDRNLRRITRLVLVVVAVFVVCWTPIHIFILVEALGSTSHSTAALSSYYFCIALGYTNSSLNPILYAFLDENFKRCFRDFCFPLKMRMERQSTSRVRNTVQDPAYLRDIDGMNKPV
UniProt P35372, whole entry: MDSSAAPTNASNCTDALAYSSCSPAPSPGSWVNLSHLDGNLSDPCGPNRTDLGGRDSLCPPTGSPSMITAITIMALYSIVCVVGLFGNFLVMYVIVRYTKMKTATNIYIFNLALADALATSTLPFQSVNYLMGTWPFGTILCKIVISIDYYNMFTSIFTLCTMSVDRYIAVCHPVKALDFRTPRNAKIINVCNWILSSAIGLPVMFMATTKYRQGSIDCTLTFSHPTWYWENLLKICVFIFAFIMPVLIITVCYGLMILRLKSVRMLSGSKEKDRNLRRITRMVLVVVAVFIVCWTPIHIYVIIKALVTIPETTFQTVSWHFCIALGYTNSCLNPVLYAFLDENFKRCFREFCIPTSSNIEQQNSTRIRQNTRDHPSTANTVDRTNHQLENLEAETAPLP

pEC50: −log10 of the molar value. Where only a bound is given, the exact number is not on record here.

The target in one assay is human κ opioid receptor (KOR) (Homo sapiens, UniProt P41145). Put plainly: cell-based.
Details: not given
In the case of `CCCO[C@@]12CCC(=O)[C@@H]3Oc4c(O)ccc5c4[C@@]31CCN(CC1CC1)[C@@H]2C5` [Compound 20], the negative-log EC50 (pEC50) was 9.17.
In turn, `C=C1CC[C@@]2(OCCC)[C@H]3Cc4ccc(O)c5c4[C@@]2(CCN3CC2CC2)[C@H]1O5` [Compound 29] showed a negative-log EC50 (pEC50) of 9.37.
On the same count and under the same terms, in the case of `O=C1CC[C@@]2(OC[C@H](O)CO)[C@H]3Cc4ccc(O)c5c4[C@@]2(CCN3CC2CC2)[C@H]1O5` [Compound 22] it was below 5.00; in that of `CCC(=O)O[C@@]12CCC(=O)[C@@H]3Oc4c(O)ccc5c4[C@@]31CCN(CC1CC1)[C@@H]2C5` [Compound 14], 8.81.
The compound `C=CCOC12CCC(=C)C3Oc4c(O)ccc5c4C31CCN(CC1CC1)C2C5` (stereo not shown) [Compound 28] had a negative-log EC50 (pEC50) of 9.85.
The same measure, in the same setting: the value for `C=C1CC[C@@]2(OC[C@H](O)CO)[C@H]3Cc4ccc(O)c5c4[C@@]2(CCN3CC2CC2)[C@H]1O5` [Compound 30] was below 5.00.
Same read-out and setting: in the case of `C=CCO[C@@]12CCC(=O)[C@@H]3Oc4c(O)ccc5c4[C@@]31CCN(CC1CC1)[C@@H]2C5` [Compound 21] it was 9.92.

The same assay, now with this note: read-out: KOR agonism % efficacy.
As for `CCCO[C@@]12CCC(=O)[C@@H]3Oc4c(O)ccc5c4[C@@]31CCN(CC1CC1)[C@@H]2C5` [Compound 20], the Emax is 39.1%.
On to `C=C1CC[C@@]2(OCCC)[C@H]3Cc4ccc(O)c5c4[C@@]2(CCN3CC2CC2)[C@H]1O5` [Compound 29], for which the Emax was 59.1%.
Still for that read-out and setting: the value for `CCC(=O)O[C@@]12CCC(=O)[C@@H]3Oc4c(O)ccc5c4[C@@]31CCN(CC1CC1)[C@@H]2C5` [Compound 14] was 58.7%; that for `C=CCOC12CCC(=C)C3Oc4c(O)ccc5c4C31CCN(CC1CC1)C2C5` (stereo not shown) [Compound 28] was 44.1%.
Consider `C=CCO[C@@]12CCC(=O)[C@@H]3Oc4c(O)ccc5c4[C@@]31CCN(CC1CC1)[C@@H]2C5` [Compound 21], for which the Emax is 41.2%.

The target of the next assay is human μ opioid receptor (MOR) (Homo sapiens, UniProt P35372). Put plainly: cell-based. Particulars: MOR agonism EC50.
For `CCCO[C@@]12CCC(=O)[C@@H]3Oc4c(O)ccc5c4[C@@]31CCN(CC1CC1)[C@@H]2C5` [Compound 20], the pEC50 is 8.18.
Still for that read-out and setting: in the case of `C=C1CC[C@@]2(OCCC)[C@H]3Cc4ccc(O)c5c4[C@@]2(CCN3CC2CC2)[C@H]1O5` [Compound 29] it was 8.92.
Compound `O=C1CC[C@@]2(OC[C@H](O)CO)[C@H]3Cc4ccc(O)c5c4[C@@]2(CCN3CC2CC2)[C@H]1O5` [Compound 22] gave a pEC50 below 5.00.
Same read-out and setting: the value for `CCC(=O)O[C@@]12CCC(=O)[C@@H]3Oc4c(O)ccc5c4[C@@]31CCN(CC1CC1)[C@@H]2C5` [Compound 14] was 8.30.
In turn, `C=CCOC12CCC(=C)C3Oc4c(O)ccc5c4C31CCN(CC1CC1)C2C5` (stereo not shown) [Compound 28] had a pEC50 of 9.47.
On the same count and under the same terms, the value for `CO[C@@H]1CC[C@@]2(O)[C@H]3Cc4ccc(O)c5c4[C@@]2(CCN3CC2CC2)[C@H]1O5` [Compound 26] was 9.06.
Same read-out and setting: the value for `O=C1CC[C@@]2(OCCCC3CCCCC3)[C@H]3Cc4ccc(O)c5c4[C@@]2(CCN3CC2CC2)[C@H]1O5` [Compound 16] was 8.72; that for `O=C(/C=C/c1ccc(Cl)cc1)N[C@@]12CCC(=O)[C@@H]3Oc4c(O)ccc5c4[C@@]31CCN(CC1CC1)[C@@H]2C5` [CCAM, clocinnamox, reference compound] was below 5.00.
On the same count and under the same terms, in the case of `CO[C@H]1CC[C@@]2(O)[C@H]3Cc4ccc(O)c5c4[C@@]2(CCN3CC2CC2)[C@H]1O5` [Compound 25] it was 8.73; in that of `C=C1CC[C@@]2(OC[C@H](O)CO)[C@H]3Cc4ccc(O)c5c4[C@@]2(CCN3CC2CC2)[C@H]1O5` [Compound 30], below 5.00.
Take `C=CCO[C@@]12CCC(=O)[C@@H]3Oc4c(O)ccc5c4[C@@]31CCN(CC1CC1)[C@@H]2C5` [Compound 21]: the pEC50 is 9.14.

The assay is the same for the next values; noted with them: read-out: MOR agonism % efficacy.
Turning to `CCCO[C@@]12CCC(=O)[C@@H]3Oc4c(O)ccc5c4[C@@]31CCN(CC1CC1)[C@@H]2C5` [Compound 20], the Emax is 38.7%.
For `C=C1CC[C@@]2(OCCC)[C@H]3Cc4ccc(O)c5c4[C@@]2(CCN3CC2CC2)[C@H]1O5` [Compound 29], the Emax is 17%.
On the same count and under the same terms, the value for `CCC(=O)O[C@@]12CCC(=O)[C@@H]3Oc4c(O)ccc5c4[C@@]31CCN(CC1CC1)[C@@H]2C5` [Compound 14] was 19.6%; that for `C=CCOC12CCC(=C)C3Oc4c(O)ccc5c4C31CCN(CC1CC1)C2C5` (stereo not shown) [Compound 28] was 38.3%; that for `CO[C@@H]1CC[C@@]2(O)[C@H]3Cc4ccc(O)c5c4[C@@]2(CCN3CC2CC2)[C@H]1O5` [Compound 26] was 39%.
Turning to `O=C1CC[C@@]2(OCCCC3CCCCC3)[C@H]3Cc4ccc(O)c5c4[C@@]2(CCN3CC2CC2)[C@H]1O5` [Compound 16], the Emax was 98.5%.
Same read-out and setting: the value for `CO[C@H]1CC[C@@]2(O)[C@H]3Cc4ccc(O)c5c4[C@@]2(CCN3CC2CC2)[C@H]1O5` [Compound 25] was 58.2%; that for `C=CCO[C@@]12CCC(=O)[C@@H]3Oc4c(O)ccc5c4[C@@]31CCN(CC1CC1)[C@@H]2C5` [Compound 21] was 37.4%.

Source of the values: publication PMC8427951, “Design, synthesis, and preliminary evaluation of a potential synthetic opioid rescue agent” (Journal of Biomedical Science, 2021).
